Most compounds without a hit are left out; they make up all but 1.7% or so of the library.
CAL PDZ FP-1: untagged CAL PDZ binding inhibitors, primary screen, biochemical, fluorescence polarization, HTS; 300,000 tested, 0.92% active; inhibition, % at 24.9 µM; AID 602252, 2012; Golgi-associated PDZ and coiled-coil motif-containing protein (Homo sapiens), Q9HD26; purified CAL PDZ, TMR-peptide fluorescence polarization, 1 h;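 active = mean inhibition of at least 30% with at least half of replicates also reaching 30%; inconclusive = no clear call, values can overlap the other calls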;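 also: 0% = DMSO neutral control and 100% = excess unlabeled competitor peptide PRC23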
dFosB act-1: activators of delta FosB homodimer, primary screen, biochemical, fluorescence polarization, TAMRA-CDK5 oligo, single point | Protein FosB (Mus musculus), P13346 | purified delta FosB; percent of positive-control signal above neutral wells | activation, % at 25 µM | 340,000 tested, 0.99% active;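 active = mean activation above about 17%, with every replicate also reaching it, limit read from the data, passing the limit was not always enough; inconclusive = only one of the two conditions met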
UUG fidelity: modulators of yeast start codon fidelity, primary screen, whole organism, S. cerevisiae, single point, plate reader; activity score, % at 18.7 µM; actives 0.13% (n = 350,000); S. cerevisiae UUG-firefly luciferase reporter, luminescence/redox ratio;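 active = replicate mean at a twofold rise or more, about +100% in these data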;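 also: firefly luciferase made from a UUG start codon reports start codon fidelity; reporter light over untreated wells divided by growth signal over untreated wells; some hits fall short of that in this replicate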
CAL PDZ FP-2: CAL PDZ peptide-binding inhibitors, primary screen, biochemical, fluorescence polarization, Cer-tagged CAL PDZ, HTS; Golgi-associated PDZ and coiled-coil motif-containing protein (Homo sapiens), Q9HD26; purified CAL PDZ, TMR-peptide fluorescence polarization, 1 h; inhibition, % at 20 µM; 330,000 tested, 0.02% active; AID 504414, 2011;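 active = highest replicate inhibition of at least 40%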;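 also: plate controls were DMSO neutral control wells for no effect and unlabeled competitor peptide control wells for full effect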
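Test system: tagged CAL PDZ domain / Buffer or medium: sodium phosphate/NaCl buffer pH 7.4 with TCEP, IgG, Thesit / Reagent: TMR-labelled reporter peptide T*-PRC34 bound in PDZ groove / Compound dosing: single point, 20 µM / Schedule: 1 h incubation at room temperature before polarization reading / Technique: fluorescence polarization (mP) / Benchmarks: unlabelled peptide, DMSO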
CDK5 inh: inhibitors of human CDK5/p35 kinase, primary screen, biochemical, single concentration; 330,000 tested, 0.01% active; inhibition, % at 10 µM; Recombinant CDK5/p35, ADP-Glo luminescence, 60 min;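 active = highest replicate inhibition of at least 50% and at least 75% of replicates reaching 50%; inconclusive = only one of the two criteria met; inactive = both criteria failed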;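 also: plate controls were DMSO neutral control for no effect and GW8510 at 10 µM for full effect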
DYRK1A inh: rat Dyrk1A kinase inhibitors, primary screen, biochemical, single point, plate reader; 310,000 tested, 0.43% active; Dual specificity tyrosine-phosphorylation-regulated kinase 1A (Rattus norvegicus), Q63470; ADP-Glo luminescence, NFATc1 peptide; inhibition, % at 12.5 µM; in the data active = inhibition above about 50%;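 also: plate controls were vehicle with enzyme for no effect and no enzyme for full effect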
dFosB act-2: activators of mouse delta FosB DNA binding, confirmation, biochemical, fluorescence polarization, TAMRA-CDK5 oligo, cherry-picked samples; activation, % at 24.9 µM; shares compounds with dFosB act-1; 2,400 tested, under 10 active; purified delta FosB; normalised: neutral wells 0, positive control 100;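 active = highest replicate activation at or above 34% and every replicate reaching that threshold; inconclusive = meets only one of the two criteria; inactive = meets neither criterion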;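 also: higher polarization means more probe DNA bound by delta FosB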
* marks the source's active call; other numbers are inactive results; ? = inconclusive; . = not tested or not shown.

Structure,CAL PDZ FP-1,dFosB act-1,UUG fidelity,CAL PDZ FP-2,CDK5 inh,DYRK1A inh,dFosB act-2
O=C(N/N=C/c1cccc2ccccc12)c1cc2ccccc2o1,-0.7,20.3*,-13.1,-2.5,0.0,2.5,5.3
COc1ccc(/C=N/NC(=O)c2cc(-c3ccccc3)nc3ccccc23)c(OC)c1,-7.2,22.6*,.,0.7,0.5,1.7,0.9
CCOc1cccc(-c2cc(C(=O)N/N=C/c3ccc(OC)c(CN4CCOCC4)c3)c3ccccc3n2)c1,-0.6,38.8*,.,-2.6,-1.7,-0.2,3.2
COc1ccc(/C=N/NC(=O)c2ccccc2NC(=O)c2ccco2)c(OC)c1,-12.2,83.8*,.,-1.7,1.9,-3.2,1.9
COCCNC(=O)C[C@H]1CC[C@H]2[C@@H](COc3ccc(NC(=O)C4CCCC4)cc3C(=O)N2C)O1,.,.,3.3,.,.,.,.
C[C@H]1CN([C@@H](C)CO)C(=O)c2cccc(NC(=O)c3nc4ccccc4s3)c2O[C@H]1CN(C)Cc1ccc(Oc2ccccc2)cc1,.,.,8.6,.,.,.,.
COc1ccccc1/C=N/NC(=O)c1cccc2ccccc12,-8.7,37.1*,10.8,-0.5,-1.4,13.6,2.3
Cc1cc(NC(=O)C2CCN(S(=O)(=O)c3cccs3)CC2)no1,.,3.2,-35.3,-0.1,-1.3,2.1,.
COc1ccc2nc(NC(=O)C3CCN(S(=O)(=O)c4cccs4)CC3)sc2c1,-1.0,25.3*,7.7,0.0,-0.4,35.0,?
O=C(O)c1ccc(COc2ccccc2/C=C2\NC(=O)N(Cc3ccc(F)cc3)C2=O)cc1,2.9,-2.5,.,-1.3,-2.2,-0.4,.
O=C(O)c1ccc(COc2ccccc2/C=C2/NC(=O)N(c3cccc(Cl)c3)C2=O)cc1,-1.6,28.4*,.,-4.1,0.2,-3.9,3.9
O=C(Nc1ccccc1)c1nc[nH]c1C(=O)NCCNC(=O)c1[nH]cnc1C(=O)Nc1ccccc1,-2.0,36.7*,-13.5,-0.8,1.6,-0.8,4.8
O=C(Nc1ccccc1)c1nc[nH]c1C(=O)NCCCCNC(=O)c1[nH]cnc1C(=O)Nc1ccccc1,-0.9,6.6,-20.2,-1.1,1.4,6.1,.
CNC[C@@H]1Oc2ccc(NC(=O)Nc3ccc4c(c3)OCO4)cc2CC(=O)N([C@H](C)CO)C[C@H]1C,.,.,-2.8,.,.,.,.
NC(=O)C1CCN(CC(=O)NC2CCCc3ccccc32)CC1 (configuration not stated),3.5,-0.4,.,-0.8,0.6,-3.3,.
Cc1cccc(Nc2nnc(SCC(=O)NC3CCCc4ccccc43)s2)c1 (configuration not stated),-6.9,21.2*,-11.9,-0.3,.,-1.3,-2.9
Cc1ccc(-c2nnn(CC(=O)NC3CCCc4ccccc43)n2)cc1 (configuration not stated),2.1,25.1*,-15.8,-0.1,.,-2.5,-1.1
C[C@@H]1CN([C@H](C)CO)C(=O)Cc2cc(NC(=O)CCC(F)(F)F)ccc2O[C@@H]1CN(C)S(=O)(=O)c1cn(C)cn1,.,.,-10.6,.,.,.,.
COc1ccc(NC(=O)N(C)C[C@@H]2Oc3c(NS(=O)(=O)c4ccc(OC)cc4)cccc3C(=O)N([C@H](C)CO)C[C@H]2C)cc1,.,.,7.7,.,.,.,.
CO[C@H]1CN(C)C(=O)c2cc(NC(=O)C3CCCC3)ccc2OC[C@H](C)N(CC2CC2)C[C@@H]1C,.,.,-10.0,.,.,.,.
COc1cccc(Cn2cnc3c(NS(=O)(=O)c4ccc(Cl)cc4)c(C)c(C)cc32)c1,-2.4,17.1*,-14.9,-1.6,-1.7,-1.7,1.3
COc1cccc(Cn2cnc3c(NS(=O)(=O)c4ccc(Cl)cc4Cl)c(C)c(C)cc32)c1,1.1,1.8,-12.1,-2.1,-4.7,6.1,.
Cc1cc(C)nc(N/N=C/c2cccc(Cl)c2)n1,.,-2.0,.,-0.6,-0.9,5.2,.
Cc1cc(N/N=C/c2cccc(Cl)c2)nc(NCc2ccccc2)n1,-4.2,41.0*,-1.3,-1.7,-0.1,-0.2,2.5

The last four compounds of the part before open the next one.
structure	CAL PDZ FP-1	dFosB act-1	UUG fidelity	CAL PDZ FP-2	CDK5 inh	DYRK1A inh	dFosB act-2
COc1cccc(Cn2cnc3c(NS(=O)(=O)c4ccc(Cl)cc4)c(C)c(C)cc32)c1	-2.4	17.1*	-14.9	-1.6	-1.7	-1.7	1.3
COc1cccc(Cn2cnc3c(NS(=O)(=O)c4ccc(Cl)cc4Cl)c(C)c(C)cc32)c1	1.1	1.8	-12.1	-2.1	-4.7	6.1	.
Cc1cc(C)nc(N/N=C/c2cccc(Cl)c2)n1	.	-2.0	.	-0.6	-0.9	5.2	.
Cc1cc(N/N=C/c2cccc(Cl)c2)nc(NCc2ccccc2)n1	-4.2	41.0*	-1.3	-1.7	-0.1	-0.2	2.5
CN(C)c1nc(NCc2ccccc2)nc(N/N=C/c2ccc(Cl)cc2Cl)n1	-1.3	17.4*	.	0.0	-0.4	5.5	5.0
Cc1cc(Nc2cccc(Cl)c2)nc(NCc2ccccc2)n1	-4.9	40.9*	.	-0.4	0.3	4.8	-1.4
CCOC(=O)N1CCN(C2=Nc3cccc4cccc2c34)CC1	1.5	21.8*	-7.9	-0.1	-1.1	11.2	0.0
c1cc2c3c(cccc3c1)C(N1CCOCC1)=N2	0.3	14.6	-11.2	0.8	0.7	.	.
CC1CN(C2=Nc3cccc4cccc2c34)CC(C)O1 (configuration not stated)	-2.3	9.2	-6.7	-1.1	1.0	16.2	.
c1ccc(CC2CCN(C3=Nc4cccc5cccc3c45)CC2)cc1	-2.6	23.0*	-13.3	-4.0	1.3	10.0	-4.5
COc1ccccc1N1CCN(C2=Nc3cccc4cccc2c34)CC1	-0.7	26.1*	-9.2	-2.4	-0.1	6.9	-0.2
CC(=O)N1CCN(C2=Nc3cccc4cccc2c34)CC1	1.3	17.3*	-14.2	-0.2	-0.1	12.4	0.9
N#C[C@@H]1[C@H](c2ccc(-c3cccc(F)c3)cc2)[C@H](CO)N1C(=O)CN1CCOCC1	.	.	-13.1	.	.	.	.
COc1cc(/C=N/NC(=O)c2cccc([N+](=O)[O-])c2)ccc1OCc1ccc(C)cc1	1.9	49.6*	-21.8	-1.0	0.0	-4.5	4.5
COc1cc(/C=N\NC(=O)c2ccc(-c3ccccc3)cc2)ccc1OCC(N)=O	6.5	66.4*	-20.4	-2.3	0.8	-4.5	6.4
COc1cc(/C=N\NC(=O)c2ccc(-c3ccccc3)cc2)cc(OC)c1O	-3.5	5.7	-19.1	-1.4	-1.8	-1.6	.
COc1ccc(/C=N/NC(=O)c2[nH]nc3c2CCc2ccccc2-3)cc1OC	-4.6	88.1*	.	-6.7	-2.2	17.4	3.0
COc1cc(/C=N/NC(=O)c2ccccc2O)ccc1OCC(=O)Nc1ccccc1	3.7	27.5*	-19.3	3.6	0.8	-1.1	1.6
Cc1noc(C)c1S(=O)(=O)N(C)C[C@H]1OCCCC[C@H](C)Oc2ccc(NC(=O)Cc3ccccc3)cc2C(=O)N([C@H](C)CO)C[C@H]1C	.	.	3.8	.	.	.	.

Screening results: PubChem, Broad Institute
